According to article PMC5355811 (Nature Communications, 2017):
Like-named read-outs stand apart in the source and are kept apart here.

Tests used:
Assay type in all cases: cell-based
[1] = test system: Ba/F3 cells of EGFR-C797S/del19; experiment: Drug sensitivity screening at 100 nM, Ba/F3 EGFR-C797S/del19; details: for Cell inhibition rate relative to DMSO in C797S/del19 Ba/F3 cells: 100 nM; for viability at 0.1 µM: Mus musculus, BaF3, 72 h, read-out: Relative cell viability (ratio to DMSO control), del19/C797S
[2] = test system: Ba/F3 cells of EGFR-C797S/T790M/del19; experiment: Drug sensitivity screening at 100 nM, Ba/F3 EGFR-C797S/T790M/del19; details: for Cell inhibition rate relative to DMSO in C797S/T790M/del19 Ba/F3 cells: 100 nM; for viability at 0.1 µM: Mus musculus, BaF3, 72 h, read-out: Relative cell viability (ratio to DMSO control), del19/T790M/C797S
[3] = test system: phosphorylation of EGFR in Ba/F3 cells expressing EGFR-C797S/T790M/L858R; experiment: Western blotting of EGFR signalling, Ba/F3 triple-L858R; details: 6 h, up to 1000 nM
[4] = 100 nM inhibitor, 72 h, DMSO = 100, mean of three independent experiments (Fig. 1a data)

| Compound | Cell inhibition rate relative to DMSO in C797S/del19 Ba/F3 cells ([1]; 72 h, DMSO = 100, experiment 1) | Cell inhibition rate relative to DMSO in C797S/T790M/del19 Ba/F3 cells ([2]; 72 h, DMSO = 100, experiment 2) | Cell inhibition rate relative to DMSO in C797S/T790M/del19 Ba/F3 cells ([2]; 72 h, DMSO = 100, experiment 3) | further results |
| --- | --- | --- | --- | --- |
| CO[C@H]1C[C@@H]2CC[C@@H](C)[C@@](O)(O2)C(=O)C(=O)N2CCCC[C@H]2C(=O)O[C@H]([C@H](C)C[C@@H]2CC[C@@H](OCCO)[C@H](OC)C2)CC(=O)[C@H](C)/C=C(\C)[C@@H](O)[C@@H](OC)C(=O)[C@H](C)C[C@H](C)/C=C/C=C/C=C/1C [Everolimus, everolimus] | 55.3169 | – | – | viability at 0.1 µM [1, 4]: 53.5% |
| CS(=O)(=O)N1CCN(Cc2cc3nc(-c4cccc5[nH]ncc45)nc(N4CCOCC4)c3s2)CC1 [GDC0941] | – | 69.7443 | 72.0059 | – |
| CS(=O)(=O)CCNCc1ccc(-c2ccc3ncnc(Nc4ccc(OCc5cccc(F)c5)c(Cl)c4)c3c2)o1 [Lapatinib, lapatinib] | – | – | – | viability at 0.1 µM [2]: 136% |
| C[C@H]1Oc2cc(cnc2N)-c2c(nn(C)c2C#N)CN(C)C(=O)c2ccc(F)cc21 [Lorlatinib, lorlatinib] | – | 134.161 | – | – |
| O=C(C(c1ccccc1)c1ccccc1)N1CCN(CC(O)COc2cccc3ncccc23)CC1 (stereo not shown) [MS209] | 108.744 | 130.343 | 119.71 | Relative cell viability (ratio to DMSO control), del19/C797S [1, 4]: 110.326; Cell inhibition rate relative to DMSO in C797S/del19 Ba/F3 cells ([1]; 72 h, DMSO = 100, experiment 2): 109.544; Cell inhibition rate relative to DMSO in C797S/del19 Ba/F3 cells ([1]; 72 h, DMSO = 100, experiment 3): 112.691; Relative cell viability (ratio to DMSO control), del19/T790M/C797S [2, 4]: 120.168; Cell inhibition rate relative to DMSO in C797S/T790M/del19 Ba/F3 cells ([2]; 72 h, DMSO = 100, experiment 1): 110.451 |
| C=CC(=O)Nc1cc(Nc2nccc(-c3cn(C)c4ccccc34)n2)c(OC)cc1N(C)CCN(C)C [Osimertinib, osimertinib] | – | – | – | viability at 0.1 µM [1]: 95.8%; viability at 0.1 µM [2]: 134% |
| Cc1[nH]c(/C=C2\C(=O)Nc3ccc(S(=O)(=O)Cc4c(Cl)cccc4Cl)cc32)c(C)c1C(=O)N1CCC[C@@H]1CN1CCCC1 [PHA665752] | – | 141.184 | 137.987 | – |
| Cc1ccc(C(=O)Nc2ccc(CN3CCN(C)CC3)c(C(F)(F)F)c2)cc1C#Cc1cnc2cccnn12 [Ponatinib, ponatinib] | – | – | – | viability at 0.1 µM [1]: 42.7%; viability at 0.1 µM [2]: 53.9% |
| CO[C@H]1C[C@@H]2CC[C@@H](C)[C@@](O)(O2)C(=O)C(=O)N2CCCC[C@H]2C(=O)O[C@H]([C@H](C)C[C@@H]2CC[C@@H](O)[C@H](OC)C2)CC(=O)[C@H](C)/C=C(\C)[C@@H](O)[C@@H](OC)C(=O)[C@H](C)C[C@H](C)/C=C/C=C/C=C/1C [Rapamycin, rapamycin] | 54.2787 | 29.6091 | – | – |
| COc1cc(N2CCC(N3CCN(C)CC3)CC2)ccc1Nc1ncc(Cl)c(Nc2ccccc2S(=O)(=O)C(C)C)n1 [TAE684] | – | – | – | viability at 0.1 µM [1, 4]: 86.7%; phosphorylation of EGFR and downstream signal pathway, Ba/F3 C797S/T790M/L858R [3]: didn’t suppress the signals |
| CC(=O)Nc1cccc(-n2c(=O)n(C3CC3)c(=O)c3c(Nc4ccc(I)cc4F)n(C)c(=O)c(C)c32)c1 [Trametinib, trametinib] | – | 45.2979 | 43.3634 | Cell inhibition rate relative to DMSO in C797S/T790M/del19 Ba/F3 cells ([2]; 72 h, DMSO = 100, experiment 1): 43.7937 |
| COc1cc2nccc(Oc3ccc(NC(=O)C4(C(=O)Nc5ccc(F)cc5)CC4)cc3)c2cc1OC [XL184] | – | 146.435 | 135.248 | – |
| CC(=O)O[C@H]1C(=O)[C@@]2(C)[C@H]([C@H](OC(=O)c3ccccc3)[C@]3(O)C[C@H](OC(=O)[C@H](O)[C@@H](NC(=O)c4ccccc4)c4ccccc4)C(C)=C1C3(C)C)[C@]1(OC(C)=O)CO[C@@H]1C[C@@H]2O [paclitaxel] | 52.9536 | 104.896 | 100.035 | Cell inhibition rate relative to DMSO in C797S/del19 Ba/F3 cells ([1]; 72 h, DMSO = 100, experiment 2): 25.364; viability at 0.1 µM [1, 4]: 42.2% |
